Tested on: human MDR1 P-gp
Experiment: Assessment of efflux in MDCK cells transfected with the human MDR1 gene (MDCK assay)
Type: in vitro ADME, canine
Details: dog, MDCK-MDR1, pH 7.4, MDCK-MDR1; Papp (b-a) divided by Papp (a-b)
Experimental: Assessment of Efflux in Madin-Darby Canine Kidney Cells Transfected with the Human MDR1 Gene (MDCK Assay)
Apparent permeability coefficients (PE) of the compounds across the MDCK-MDR1 cell monolayers are measured (pH 7.4, 37° C.) in apical-to-basal (AB) and basal-to-apical (BA) transport direction. AB permeability (PEAB) represents drug absorption from the blood into the brain and BA permeability (PEBA) drug efflux from the brain back into the blood via both passive permeability as well as active transport mechanisms mediated by efflux and uptake transporters that are expressed on the MDCK-MDR1 cells, predominantly by the overexpressed human MDR1 P-gp. The compounds are assigned to permeability/absorption classes by comparison of the AB permeabilities with the AB permeabilities of reference compounds with known in vitro permeability and oral absorption in the human. Identical or similar permeabilities in both transport directions indicate passive permeation, vectorial permeability points to additional active transport mechanisms. Higher PEBA than PEAB indicates the involvement of active efflux mediated by MDR1 P-gp. […]
MDCK-MDR1 cells (1-2×10e5 cells/1 cm2 area) are seeded on filter inserts (Costar transwell polycarbonate or PET filters, 0.4 μm pore size) and cultured (DMEM) for 7 days. […] Efflux ratio is calculated dividing the Papp (b-a) values by the Papp (a-b) values.

efflux ratio at 2 h: 5
SMILES: Cc1nn2cc(C3CC3)cnc2c1C(=O)NC1(c2ccc(C(F)(F)F)nc2)CCOCC1O (racemic) [Example 51]
